Data from patent publication US5620958A, “Bradykinin antagonists” (Coretech, Inc., priority 1994, dated 1997).

Chains of the proteins cited; added tags and fusions are not shown.
UniProt P25023, whole entry: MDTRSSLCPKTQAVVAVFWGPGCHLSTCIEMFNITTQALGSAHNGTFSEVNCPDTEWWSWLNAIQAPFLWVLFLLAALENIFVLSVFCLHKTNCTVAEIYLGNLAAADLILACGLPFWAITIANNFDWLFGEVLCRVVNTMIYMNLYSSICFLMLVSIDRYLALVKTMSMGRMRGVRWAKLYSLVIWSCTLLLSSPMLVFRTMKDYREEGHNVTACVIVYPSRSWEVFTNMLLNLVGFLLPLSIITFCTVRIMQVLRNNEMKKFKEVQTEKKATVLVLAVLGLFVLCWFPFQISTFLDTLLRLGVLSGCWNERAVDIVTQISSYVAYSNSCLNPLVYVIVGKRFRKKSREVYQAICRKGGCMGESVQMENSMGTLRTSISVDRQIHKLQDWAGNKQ

Molecular target: BK2 receptor (Rattus norvegicus, UniProt P25023)
Settings: Table A; recovery after washing

With `CC(C)C[C@H](NC(=O)[C@@H](Cc1ccccc1)NC(=O)[C@H](CS)NC(=O)[C@H](Cc1ccccc1)NC(=O)CNC(=O)[C@@H]1C[C@@H](O)CN1C(=O)[C@@H]1CCCN1C(=O)[C@H](CCCNC(=N)N)NC(=O)[C@H](N)CCCNC(=N)N)C(=O)N[C@@H](CCCNC(=N)N)C(=O)O` [CP-0126] the “RU % REC” value was 100%.
